Measurements from patent US20220110919A1, “METHODS OF MODULATING LEUKOCYTES ACTIVATION AND THROMBOCYTE CLEARANCE WITH INHIBITORS OF SPECIFIC NEURAMINIDASE ISOENZYMES” (The Governors of the University of Alberta, priority 2018, published 2022).

By UniProt entry, the sequences of proteins in these tests, tags left out.
UniProt Q9Y3R4, whole entry: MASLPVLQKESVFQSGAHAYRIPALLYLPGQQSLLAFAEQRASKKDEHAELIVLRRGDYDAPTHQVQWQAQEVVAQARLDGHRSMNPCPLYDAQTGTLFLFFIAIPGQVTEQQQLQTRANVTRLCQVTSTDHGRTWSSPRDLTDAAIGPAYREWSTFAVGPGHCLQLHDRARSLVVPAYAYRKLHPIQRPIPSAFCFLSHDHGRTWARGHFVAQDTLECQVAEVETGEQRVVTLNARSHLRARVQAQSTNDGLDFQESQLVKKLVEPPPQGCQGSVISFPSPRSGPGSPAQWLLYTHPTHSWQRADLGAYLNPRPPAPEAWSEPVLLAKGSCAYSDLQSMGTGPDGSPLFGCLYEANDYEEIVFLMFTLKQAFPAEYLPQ
UniProt Q8WWR8, whole entry: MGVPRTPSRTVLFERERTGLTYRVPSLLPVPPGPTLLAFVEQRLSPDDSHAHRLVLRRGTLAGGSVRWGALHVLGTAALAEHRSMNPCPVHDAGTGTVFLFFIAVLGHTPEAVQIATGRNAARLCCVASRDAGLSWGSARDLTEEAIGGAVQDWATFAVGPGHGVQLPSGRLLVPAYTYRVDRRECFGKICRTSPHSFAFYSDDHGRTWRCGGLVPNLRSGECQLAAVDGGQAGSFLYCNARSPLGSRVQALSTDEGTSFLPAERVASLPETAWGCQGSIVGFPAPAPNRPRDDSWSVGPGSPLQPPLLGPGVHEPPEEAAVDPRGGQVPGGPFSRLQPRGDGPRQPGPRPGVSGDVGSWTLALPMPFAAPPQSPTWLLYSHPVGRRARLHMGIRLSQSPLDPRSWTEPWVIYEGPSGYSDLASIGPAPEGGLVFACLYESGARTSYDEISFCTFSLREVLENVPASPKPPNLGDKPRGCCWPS
UniProt Q9UQ49, whole entry: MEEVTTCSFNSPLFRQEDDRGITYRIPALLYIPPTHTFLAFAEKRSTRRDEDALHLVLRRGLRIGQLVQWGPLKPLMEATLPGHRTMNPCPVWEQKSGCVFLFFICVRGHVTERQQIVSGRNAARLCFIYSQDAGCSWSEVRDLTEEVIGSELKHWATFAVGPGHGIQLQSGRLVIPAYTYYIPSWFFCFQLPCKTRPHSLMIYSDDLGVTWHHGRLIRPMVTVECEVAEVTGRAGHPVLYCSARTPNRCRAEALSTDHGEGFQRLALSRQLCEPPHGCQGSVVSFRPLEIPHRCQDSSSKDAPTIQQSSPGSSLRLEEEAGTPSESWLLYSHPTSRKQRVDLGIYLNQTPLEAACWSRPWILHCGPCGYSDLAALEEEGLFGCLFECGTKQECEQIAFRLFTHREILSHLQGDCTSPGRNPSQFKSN

Legend:
Format in all cases: biochemical
[1] = target: NEU2 (Homo sapiens, UniProt Q9Y3R4); experiment: Inhibition assay, 4MU-NANA cleavage, NEU2; conditions: read-out: IC50 NEU2; 4MU-NANA as the substrate; pH 5.5
[2] = target: NEU1 (Homo sapiens, UniProt Q99519); experiment: Inhibition assay, 4MU-NANA cleavage, NEU1; conditions: read-out: IC50 NEU1; 4MU-NANA as the substrate; pH 4.5
[3] = target: NEU4 (Homo sapiens, UniProt Q8WWR8); experiment: Inhibition assay, 4MU-NANA cleavage, NEU4; conditions: read-out: IC50 NEU4; 4MU-NANA as the substrate; pH 4.5
[4] = target: NEU3 (Homo sapiens, UniProt Q9UQ49); experiment: Inhibition assay, 4MU-NANA cleavage, NEU3; conditions: read-out: IC50 NEU3; 4MU-NANA as the substrate; pH 4.5

| IC50 [1] [µM] | IC50 [2] [µM] | IC50 [3] [µM] | IC50 [4] [µM] | Structure (SMILES) |
| --- | --- | --- | --- | --- |
| 90 | – | – | – | CC(=O)N[C@H]1[C@H]([C@H](O)[C@H](O)CNC(=O)c2ccc(-c3ccccc3)cc2)OC(C(=O)O)=C[C@@H]1O |
| 9.2 | 88 | 0.83 | 0.49 | [N-]=[N+]=NCC(=O)N[C@H]1[C@H]([C@H](O)[C@H](O)Cn2cc(-c3ccc(-c4ccccc4)cc3)nn2)OC(C(=O)O)=C[C@@H]1O |
